The assay has as its target T1, Steroid hormone receptor ERR2 (Homo sapiens, UniProt O95718).
T1 sequence (O95718 whole entry): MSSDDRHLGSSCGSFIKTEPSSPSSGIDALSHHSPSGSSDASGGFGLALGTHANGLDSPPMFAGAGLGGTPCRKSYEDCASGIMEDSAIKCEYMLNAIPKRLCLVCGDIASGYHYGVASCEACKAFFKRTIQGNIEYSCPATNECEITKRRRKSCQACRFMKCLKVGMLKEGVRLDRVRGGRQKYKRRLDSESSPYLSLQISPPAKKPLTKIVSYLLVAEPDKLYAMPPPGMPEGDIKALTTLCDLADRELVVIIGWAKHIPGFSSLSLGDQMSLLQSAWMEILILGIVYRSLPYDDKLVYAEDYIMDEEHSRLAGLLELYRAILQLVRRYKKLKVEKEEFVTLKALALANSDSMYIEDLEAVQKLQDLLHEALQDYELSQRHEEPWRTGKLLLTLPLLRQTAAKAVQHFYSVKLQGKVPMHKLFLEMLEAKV
The experiment in a line: Inhibition of fluorescien-conjugated coactivator PGC1a binding to ERRbeta (unknown origin) after 1 hr by TR-FRET assay. (In general: Time-resolved FRET reads energy transfer from a long-lived donor to a nearby acceptor.)

As usually defined, the IC50 is the point on the concentration scale where inhibition reaches its midpoint.

`CN(C)CCOc1ccc(/C(=C(/CCCO)c2ccccc2)c2ccc(O)cc2)cc1.Cl` showed an IC50 above 10 µM.

For the origin of these results see ChEMBL document CHEMBL3856205, “Synthesis and biological evaluation of novel 4-hydroxytamoxifen analogs as estrogen-related receptor gamma inverse agonists” (Eur J Med Chem, 2016).
